# AlphaSeq binding of Ab-91 heavy chain variants to a spike HR2 peptide

From the AlphaSeq antibody data of Engelhart et al. 2022 (doi:10.1038/s41597-022-01779-4), copy in the FLAb collection.

Target: peptide PDVDLGDISGINAS, taken from heptad repeat 2 (HR2) of SARS-CoV-2 spike.

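The parent was found by panning a naive human phage display library on the peptide. Variants in AAYL51 differ from the parent at up to three CDR positions; double and triple changes were sampled at random. The assay is AlphaSeq: two haploid yeast populations carry antibody and antigen on their surface. Mating (16 h, 30 °C) was followed by selection of diploids and sequencing of their barcodes. Read counts were normalised to the haploid input and turned into Kd by a linear fit to BCL2-family pairs of known affinity, for each replicate. Each pool was mated in three replicate cultures.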

Each scFv is VL, the linker GGGGSGGGGSGGGGS, VH, as in the parent Ab-91, and differs from it in the CDRs of the heavy chain only.
VL: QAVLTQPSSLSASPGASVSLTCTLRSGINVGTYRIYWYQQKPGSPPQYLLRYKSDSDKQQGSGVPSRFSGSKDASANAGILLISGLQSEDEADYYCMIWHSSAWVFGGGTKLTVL
VH: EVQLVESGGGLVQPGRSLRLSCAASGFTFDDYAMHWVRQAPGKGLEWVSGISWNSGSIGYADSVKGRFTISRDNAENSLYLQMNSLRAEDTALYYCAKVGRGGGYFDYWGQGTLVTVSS

Positions count from residue 1 of the parent VH; G56K puts K in place of G.
Every variant below is changed at Y60 of the VH (sequential numbering).
The read-out is the apparent dissociation constant on a log10 scale (nM): the lower, the stronger.
The mean shown is taken over the replicates in which the pair was detected.
An entry "nd" has no value in the source: the pair was not observed among the diploids in any replicate. This suggests poor binding but is not conclusive.

For G56K/Y60V/G103K, the assay gave nd (0 of 3 replicates; controls 2 of 9). For G26W/Y60H/D62V, the assay gave nd (0 of 3 replicates; controls 1 of 9). For D31L/Y32G/Y60K, the assay gave 4.53 (1 of 3 replicates; controls 0 of 9). The variant Y60M/D107V/Y108Q gave 4.04 (1 of 3 replicates; controls 5 of 9). With S55G/Y60I/D107P the result was nd (0 of 3 replicates; controls 0 of 9). The variant Y60F/F106T showed nd (0 of 3 replicates; controls 1 of 9). The variant G56D/Y60I/G104L showed 4.69 (1 of 3 replicates; controls 2 of 9).

For M34R/Y60I/Y105Q, the assay gave nd (0 of 3 replicates; controls 1 of 9). For T28R/Y60S/D107G, the assay gave 3.15 (3 of 3 replicates; controls 2 of 9). With D30V/I51N/Y60I the result was nd (0 of 3 replicates; controls 0 of 9). The variant D30P/A33R/Y60A gave nd (0 of 3 replicates; controls 0 of 9). The variant S52D/I58L/Y60T showed nd (0 of 3 replicates; controls 0 of 9). For G26V/D31Q/Y60Q, the assay gave 5.56 (3 of 3 replicates; controls 7 of 9). With D31R/I58N/Y60T the result was 4.34 (3 of 3 replicates; controls 0 of 9).

For G26P/N54H/Y60R, the assay gave 5.32 (2 of 3 replicates; controls 1 of 9). With S55T/Y60Q/Y105K the result was nd (0 of 3 replicates; controls 0 of 9). For F29L/Y60A, the assay gave nd (0 of 3 replicates; controls 0 of 9). The variant I58L/Y60A/A61M showed 3.48 (2 of 3 replicates; controls 0 of 9). With G26L/S57R/Y60L the result was 5.05 (2 of 3 replicates; controls 4 of 9). The variant D31M/Y60F/K65A gave 2.29 (3 of 3 replicates; controls 0 of 9). The variant M34Y/G59P/Y60F showed nd (0 of 3 replicates; controls 3 of 9).

The variant Y60M/Y108D gave 1.30 (3 of 3 replicates; controls 0 of 9). For D31K/Y60K, the assay gave 3.60 (3 of 3 replicates; controls 4 of 9). The variant I51K/Y60W/K65L gave 3.41 (1 of 3 replicates; controls 2 of 9). With D30R/G56M/Y60A the result was nd (0 of 3 replicates; controls 0 of 9). The variant Y60M/G100A showed 4.94 (1 of 3 replicates; controls 6 of 9). The variant D30V/Y60R/Y108K showed 4.38 (1 of 3 replicates; controls 3 of 9). For M34G/Y60A/F106V, the assay gave nd (0 of 3 replicates; controls 1 of 9).

With Y60L the result was nd (0 of 3 replicates; controls 1 of 9). The variant W53E/Y60A/Y105S gave 4.78 (1 of 3 replicates; controls 0 of 9). The variant T28K/Y60Q/A61R gave 5.78 (1 of 3 replicates; controls 0 of 9). The variant Y60L/S63D/K65E gave 3.20 (3 of 3 replicates; controls 2 of 9). For Y60A/Y108M, the assay gave 2.35 (3 of 3 replicates; controls 5 of 9). The variant G26E/G56F/Y60T showed 3.91 (1 of 3 replicates; controls 1 of 9). The variant G26Q/W53P/Y60I gave 2.18 (3 of 3 replicates; controls 0 of 9).

The variant D31H/M34W/Y60Q gave nd (0 of 3 replicates; controls 2 of 9). With Y60L/D62A/F106D the result was nd (0 of 3 replicates; controls 1 of 9). The variant S55Y/Y60N/G100C showed 4.42 (3 of 3 replicates; controls 3 of 9). For G59L/Y60M/D62K, the assay gave 5.49 (3 of 3 replicates; controls 7 of 9). With D30T/Y60N/Y105C the result was 4.00 (2 of 3 replicates; controls 2 of 9). The variant M34E/Y60K/Y108D showed nd (0 of 3 replicates; controls 1 of 9). For Y60L/F106W, the assay gave 3.27 (3 of 3 replicates; controls 4 of 9).

The variant W53S/Y60R/S63T gave 5.53 (2 of 3 replicates; controls 4 of 9). The variant Y32P/G56S/Y60S gave nd (0 of 3 replicates; controls 0 of 9). With Y60K/R101S/F106K the result was 3.81 (1 of 3 replicates; controls 1 of 9).

Excerpt, the final 3 entries:

With W53S/Y60R/S63T the result was 5.53 (2 of 3 replicates; controls 4 of 9).
With Y32P/G56S/Y60S the result was nd (0 of 3 replicates; controls 0 of 9).
With Y60K/R101S/F106K the result was 3.81 (1 of 3 replicates; controls 1 of 9).

Background: pairings of library AAYL51 with three empty control strains gave a value in 21% of cases (median 4.54, 5th percentile 3.26). Values in that range, when seen in few replicates, are hard to tell from nonspecific mating. For each scFv, signals with the empty controls are counted beside the result.
For reference, the parent read 1.86 as the reference entry and 0.88 as a member of this library.